Source: patent US20140193338A1, “COMPOUNDS FOR USE IN IMAGING, DIAGNOSING AND/OR TREATMENT OF DISEASES OF THE CENTRAL NERVOUS SYSTEM” (PIRAMAL IMAGING SA, priority 2011, published 2014)

The chains behind the UniProt entries cited, without tags or fusion partners.
UniProt P27338, whole entry: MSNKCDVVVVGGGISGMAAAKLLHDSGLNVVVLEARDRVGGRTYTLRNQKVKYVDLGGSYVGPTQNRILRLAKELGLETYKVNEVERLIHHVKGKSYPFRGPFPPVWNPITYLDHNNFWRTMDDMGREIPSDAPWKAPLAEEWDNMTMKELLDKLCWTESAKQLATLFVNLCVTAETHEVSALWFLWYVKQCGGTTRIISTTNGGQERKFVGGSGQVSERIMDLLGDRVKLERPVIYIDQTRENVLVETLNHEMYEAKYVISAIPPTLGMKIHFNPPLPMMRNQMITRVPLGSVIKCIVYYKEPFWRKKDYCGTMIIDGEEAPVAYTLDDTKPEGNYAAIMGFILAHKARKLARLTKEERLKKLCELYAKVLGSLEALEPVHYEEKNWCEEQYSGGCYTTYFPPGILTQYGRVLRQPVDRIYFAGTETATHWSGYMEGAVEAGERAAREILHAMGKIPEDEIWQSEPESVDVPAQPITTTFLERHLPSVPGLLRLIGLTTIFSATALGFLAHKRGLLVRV

Target: T1, MAO-B (Homo sapiens, UniProt P27338)
T1 construct: Autoradiography using [^18F]rasagiline on human brain slices from a healthy subject; from tissue; host or cells: human brain hemisphere cryosections (100 µm)
Assay: Autoradiography with [^18F]rasagiline on human brain sections, blocking with excess inhibitor
Format: binding
Details: excess (10 μM) of the inhibitor in the incubation solution
Experimental: Binding of the [^18F]rasagiline (compound of formula F) was investigated on human brain sections from normal subjects using a standard protocol.
In brief, whole brain hemispheres were cut at a 100 μm thickness in a Cryocut (Leica, Germany), thaw mounted onto gelatine glass slides and kept at −25° C. before use. Thereafter, the slides containing the regions of interest (e.g. hippocampus, thalamus) were removed and brought to room temperature. The sections were incubated with 0.2 MBq/mL [^18F] compound F in 50 mM TRIS/0.1% BSA (pH 7.4) with salts (120 mM NaCl, 5 mM KCl, 1 mM CaCl2, 1 mM MgCl2) for 90 min at room temperature and washed three times for 5 min each in 50 mM TRIS (pH 7.4). The sections were dipped once into ice cold distilled water, dried at room temperature and exposed to PhosphorImager plates (FUJI BAS 5000) overnight.
For detection of the specificity of the signals an excess (10 μM) of deprenyl, rasagiline (both for MAO-B) and pirlindole (for MAO-A), respectively, was used together with the ^18F labelled rasagiline (compound F).

SMILES: Cc1ccc2c(c1)c1c3n2CCNC3CCC1 (stereo not shown) [pirlindole]
- blocking of the [^18F]rasagiline (compound F) autoradiography signal: could not be blocked
